Data: US20260083864A1, “CONTRAST AGENTS FOR USE IN DIAGNOSTIC COMPUTED TOMOGRAPHY IMAGING” (Bayer Aktiengesellschaft, priority 2022, published 2026)

Amino acid sequences for entries named in this document (tags omitted). A change or cut given only in a name is not applied to a line headed by its entry.
UniProt Q9Y6L6: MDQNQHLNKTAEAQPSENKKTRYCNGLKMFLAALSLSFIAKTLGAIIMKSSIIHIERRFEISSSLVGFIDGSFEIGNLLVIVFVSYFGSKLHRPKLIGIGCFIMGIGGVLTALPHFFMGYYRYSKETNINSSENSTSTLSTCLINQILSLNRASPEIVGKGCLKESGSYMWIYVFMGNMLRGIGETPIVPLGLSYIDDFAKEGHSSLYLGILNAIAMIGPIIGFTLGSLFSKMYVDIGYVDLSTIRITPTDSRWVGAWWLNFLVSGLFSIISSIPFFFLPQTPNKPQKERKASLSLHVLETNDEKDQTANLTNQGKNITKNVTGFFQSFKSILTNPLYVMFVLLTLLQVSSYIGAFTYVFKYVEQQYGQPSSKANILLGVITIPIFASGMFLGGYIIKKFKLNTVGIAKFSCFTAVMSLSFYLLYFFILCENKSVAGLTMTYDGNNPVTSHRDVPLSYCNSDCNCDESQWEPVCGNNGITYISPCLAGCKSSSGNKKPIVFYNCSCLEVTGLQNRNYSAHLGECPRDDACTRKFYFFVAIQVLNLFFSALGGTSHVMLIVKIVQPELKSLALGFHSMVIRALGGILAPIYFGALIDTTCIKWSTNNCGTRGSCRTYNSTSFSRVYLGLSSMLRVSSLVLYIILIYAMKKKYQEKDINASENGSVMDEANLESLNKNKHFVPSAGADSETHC
UniProt Q9NPD5: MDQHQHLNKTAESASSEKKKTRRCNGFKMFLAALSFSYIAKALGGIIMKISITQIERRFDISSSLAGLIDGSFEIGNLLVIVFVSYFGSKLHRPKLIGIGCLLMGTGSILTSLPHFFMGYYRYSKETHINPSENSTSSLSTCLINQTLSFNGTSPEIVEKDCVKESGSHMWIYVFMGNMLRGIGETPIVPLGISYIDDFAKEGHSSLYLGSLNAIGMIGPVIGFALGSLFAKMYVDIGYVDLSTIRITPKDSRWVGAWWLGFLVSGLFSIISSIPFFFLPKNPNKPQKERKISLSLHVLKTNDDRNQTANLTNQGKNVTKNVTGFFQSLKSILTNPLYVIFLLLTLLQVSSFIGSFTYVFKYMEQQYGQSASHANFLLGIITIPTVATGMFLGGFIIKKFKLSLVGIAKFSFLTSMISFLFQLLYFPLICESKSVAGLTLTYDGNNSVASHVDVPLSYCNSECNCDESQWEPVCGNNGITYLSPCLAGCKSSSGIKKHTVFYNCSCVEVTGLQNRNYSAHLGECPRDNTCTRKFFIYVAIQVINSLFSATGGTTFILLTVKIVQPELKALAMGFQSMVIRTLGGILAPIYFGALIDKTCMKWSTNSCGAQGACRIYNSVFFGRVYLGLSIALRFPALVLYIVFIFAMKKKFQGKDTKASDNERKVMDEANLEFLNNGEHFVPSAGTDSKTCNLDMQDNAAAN

Experiments:
OATP1B1 = OATP1B1 (Homo sapiens, UniProt Q9Y6L6); experiment: Uptake into stable transfected OATP1B1 HEK 293 cells; assay type: cell-based; details: for Uptake into OATP1B1-HEK 293 cells: 40 min incubation, relative to RC1 (Gd-EOB-DTPA); for Inhibition Rifampicine: uptake into OATP1B1-HEK 293 cells
Protocol: (§1) Cryopreserved cells were shortly thawed in water bath and diluted in 10 mL warm culture medium (37° C.). After medium change the cells were grown for 3d in a 25 cm^2 cell culture flask. After 3 to 5d the cells were transferred into 75 cm^2 flasks. […] All test items were prepared in transport buffer at a final concentration of 100 M from stock solutions (180 to 500 mM concentration). The OATP1B1 HEK 293 cells were incubated with test solutions (test item in transport buffer 500 L) for 40 min on a thermoshaker without shaking (PHMP, Fa. Grant Bio). Triplicates were performed for each test item. After incubation the cells were washed with 2 mL of cold PBS (+) buffer (Dulbeccos PBS+, Fa. Gibco). […] As a reference standard Gd-EOB-DTPA (gadoxetate) is used in the same well plate.

OATP1B3 = OATP1B3 (Homo sapiens, UniProt Q9NPD5); experiment: Uptake into stable transfected OATP1B3 HEK 293 cells; assay type: cell-based; details: for Uptake into OATP1B3-HEK 293 cells: 40 min incubation, relative to RC1 (Gd-EOB-DTPA); for Inhibition Rifampicine: uptake into OATP1B3-HEK 293 cells
Protocol: as §1, with “100 µM” for “100 M”, “The OATP1B3” for “The OATP1B1”, “500 μL)” for “500 L)”

Compound	Uptake into OATP1B1-HEK 293 cells (OATP1B1)	Inhibition Rifampicine (OATP1B1)	Uptake into OATP1B3-HEK 293 cells (OATP1B3)	Inhibition Rifampicine (OATP1B3)
CCOCCOCCOc1ccc(CC(C(=O)O)N2CCN(CC(=O)[O-])CCN(C(C)C(=O)[O-])CCN(CC(=O)[O-])CC2)cc1.[Gd+3] (single isomer, unassigned) [Example 5, gadolinium 2-[7-(1-carboxy-2-{4-[2-(2-ethoxyethoxy)ethoxy]phenyl}ethyl)-4,10-bis(carboxylatomethyl)-1,4,7,10-tetraazacyclododecan-1-yl]propanoate]	79 % of RC1	50 % inhibition		
CCOCCOCCOc1ccc(CC(C(=O)O)N2CCN(CC(=O)[O-])CCN(C(C)C(=O)[O-])CCN(CC(=O)[O-])CC2)cc1.[Gd+3] (single isomer, unassigned) [Example 6, gadolinium 2-[7-(1-carboxy-2-{4-[2-(2-ethoxyethoxy)ethoxy]phenyl}ethyl)-4,10-bis(carboxylatomethyl)-1,4,7,10-tetraazacyclododecan-1-yl]propanoate]	121 % of RC1	66 % inhibition		
CCOCCOCCOc1ccc(CC(C(=O)O)N2CCN(CC(=O)[O-])CCN(CC(=O)[O-])CCN(CC(=O)[O-])CC2)nc1.[Gd+3] (centres unmarked) [Example 23, gadolinium 2,2′,2″-{10-[1-carboxy-2-{5-[2-(2-ethoxyethoxy)ethoxy]pyridin-2-yl}ethyl]-1,4,7,10-tetraazacyclododecane-1,4,7-triyl}triacetate]	46 % of RC1		14 % of RC1	
CCOCCOCCOc1ccc(CC(C(=O)O)N2CCN(C(CCO)C(=O)[O-])CCN(C(CCO)C(=O)[O-])CCN(C(CCO)C(=O)[O-])CC2)cc1.[Gd+3] (centres unmarked) [Example 37, gadolinium-2,2′-{4-[1-carboxy-2-{4-[2-(2-ethoxyethoxy)ethoxy]phenyl}ethyl]-10-[1-carboxylato-3-hydroxypropyl]-1,4,7,10-tetraazacyclododecane-1,7-diyl}bis(4-hydroxybutanoate)]	1558 % of RC1	13 % inhibition	123 % of RC1	44 % inhibition
CCOCCOCCOCCOc1ccc(C[C@@H](C(=O)O)N2CCN(CC(=O)[O-])CCN(CC(=O)[O-])CCN(CC(=O)[O-])CC2)c(OCCOCCOCCOCC)c1.[Gd+3] [Example 40, gadolinium 2,2′,2″-{10-[(1S)-2-(2,4-bis {2-[2-(2-ethoxyethoxy)ethoxy]ethoxy}phenyl)-1-carboxyethyl]-1,4,7,10-tetraazacyclododecane-1,4,7-triyl}triacetate]	107 % of RC1	22 % inhibition	27 % of RC1	92 % inhibition
